Assay results: US11680043B2, “Pharmaceutically acceptable salts of psilocin and uses thereof” (priority 2021, dated 2023)

Assay: Solubility of psilocin salts in saline
Conditions: for Solubility / Average Solubility / solubility at 5 h: 5 hrs; for solubility at 5 h: 25 °C, saline or isotonic, thermodynamic from solid
[1] = Saline, single replicate, updated summary (Table 10)
[2] = Saline, updated summary (Table 10)
[3] = saline, 25° C., max 10 mg/mL free base (Table 9)
[4] = saline, 25° C., single replicate, max 10 mg/mL free base (Table 9)
[5] = saline, 25° C., 750 rpm, maximum anticipated concentration 10 mg/mL of free base (Table 9)

Row | Compound | Solubility [1] | Average Solubility [2] [µg/mL] | Appearance at 5 hrs [2] | Average Solubility [3] [µg/mL] | Solubility [4] | Appearance at 5 hrs [5] | solubility at 5 h (saline, Average Solubility, max 10 mg/mL free base (Table 9)) [µg/mL] | solubility at 5 h (saline, Solubility, single replicate, max 10 mg/mL free base (Table 9)) [µg/mL] | Appearance at 5 hrs (saline, 25° C., 750 rpm, maximum anticipated concentration 10 mg/mL of free base (Table 9), hydrochloride)
1 | CN(C)CCc1c[nH]c2cccc(O)c12.O=S(=O)(O)c1cccc2c(S(=O)(=O)O)cccc12 [Psilocin 1,5-napthalenedisulfonate NAP Pattern 1] | 7000 µg/mL and 7100 µg/mL | 7100 | Grey/blue suspension | 7100 | 7000 µg/mL and 7100 µg/mL |  |  |  | 
2 | CN(C)CCc1c[nH]c2cccc(O)c12.O=C(O)c1ccccc1 [Psilocin benzoate BEN Pattern 1, Psilocin benzoate] | 5000 µg/mL and 4900 µg/mL | 5000 | Grey suspension | 5000 | 5000 µg/mL and 4900 µg/mL | Grey suspension |  |  | 
3 | CN(C)CCc1c[nH]c2cccc(O)c12 [Psilocin free base, Psilocin] |  |  | Grey suspension |  |  | Grey suspension | 760 | 780 | 
4 | CN(C)CCc1c[nH]c2cccc(O)c12 [Psilocin hydrochloride HCl Pattern 1, Psilocin hydrochloride] |  |  |  |  |  |  |  |  | Clear solution
5 | CN(C)CCc1c[nH]c2cccc(O)c12.O=C(O)c1ccccc1O [Psilocin salicylate SAL Pattern 1, Psilocin salicylate] | 5500 µg/mL and 6000 µg/mL | 5800 | Grey/blue suspension | 5800 | 5500 µg/mL and 6000 µg/mL | Grey suspension |  |  | 
6 | Psilocin succinate [Psilocin succinate SUC Pattern 3] | >28000 µg/mL and >25000 µg/mL | >27000 | Clear solution |  |  | Clear solution |  |  | 

Several values for one entry are separate records, joined by “and”; a condition that tells them apart may be missing. Identical values can stand only once. Counter-ions that a name gives are not always drawn.
